Yeast mating assay 1: variants of the scFv Ab-14

Values reported by Engelhart et al. 2022, doi:10.1038/s41597-022-01779-4 (FLAb copy).

Antigen: PDVDLGDISGINAS, a 14-residue peptide of the SARS-CoV-2 spike HR2 region.

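The library (AAYL49) carries one to three amino acid substitutions per variant, with no insertions or deletions. The scFvs were displayed on barcoded MATa yeast, the peptide on MATalpha yeast. The frequency of each diploid, read from paired DNA barcodes, reflects how well the two displayed proteins bind. Scores were corrected for input abundance and mapped to Kd with protein pairs of known affinity run in the same pool. Each pool was mated in three replicate cultures.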

Parent: Ab-14, a human scFv built as VH, the linker GGGGSGGGGSGGGGS, VL. Only the CDRs of the heavy chain vary.
VH: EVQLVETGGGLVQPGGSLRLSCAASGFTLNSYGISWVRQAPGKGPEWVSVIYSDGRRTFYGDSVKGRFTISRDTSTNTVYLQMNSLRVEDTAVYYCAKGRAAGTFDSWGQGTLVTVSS
VL: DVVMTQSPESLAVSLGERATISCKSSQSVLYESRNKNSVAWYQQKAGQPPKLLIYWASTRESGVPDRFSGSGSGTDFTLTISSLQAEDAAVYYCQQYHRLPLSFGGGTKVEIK

Each variant is given by its three heavy chain CDRs, as the data file delimits them; those of the parent are GFTLNSYGIS, VIYSDGRRTFYGDSVK, GRAAGTFDS. Each Kd is an estimate from the mating assay, the geometric mean of the replicates in which the pair was seen; lower is stronger. A pair that was not seen in any replicate is written "no signal"; this usually means weak binding, but a binder can also be missed. As a blank, each scFv also met three strains without target: over library AAYL49, 15% of these pairings were detected, typically at 11 µM and seldom below 680 nM. In this assay the parent's reference entry averaged 4.4 nM; its copy inside this library read 13 µM (one replicate of three).

CDR-H1,CDR-H2,CDR-H3,Kd (apparent),replicates with signal
GFTLNSYGRS,VIYSDGRRTWYGDSVK,GRAARTFDS,3.1 µM,1/3
GFTLNSYGMV,VIYSDGTRTFYGDSVK,GRAAGTFDS,130 µM,1/3
GFTLNSYGIS,VIYSDGRRTFYKDSVK,GRKAGTFDD,460 nM,3/3
GFTLNSYGIS,VIYLDGRRTAYGDSVK,GRGAGTFDS,17 µM,2/3
GFTLNSYGIS,VIYSDGRRKFYQDSVK,GRAAGTFDS,18 nM,3/3
GFTLNSHGIS,VIYSDGRRTFYLDSVK,GRQAGTFDS,4.6 nM,3/3
GFTLNSYGIS,VPYSIGRRTFYEDSVK,GRAAGTFDS,13 µM,1/3
GFTLNSYGIS,VSSSDLRRTFYGDSVK,GRAAGTFDS,no signal,0/3
GFILNSYGIS,VIGSDGRRTFVGDSVK,GRAAGTFDS,no signal,0/3
GFTLNSYGIS,VIYSFGRRTFYGDSVK,GRQADTFDS,no signal,0/3
GFTLNSYGIC,VIYSDGRRQFYGDSWK,GRAAGTFDS,13 µM,1/3
GWTLNSYGIM,VIYSDGRRTFYGDSVK,GFAAGTFDS,no signal,0/3
GFTLNPYGIS,VIQSDGRRTFYGDSVK,GRALGTFDS,no signal,0/3
GFTLNSYGIS,VIYSDGSRTFYGDSVK,GRAAGTHMS,300 nM,3/3
GFTLNQYEIS,VIYSDGRRTFYGDSVK,GRAAATFDS,no signal,0/3
GFTLNFYGIS,PIYSDGRRTFYGNSVK,GRAAGTFDS,48 µM,2/3
GFTLNSYGIW,VIYSDGRRTFFGDSPK,GRAAGTFDS,no signal,0/3
GFTLNSYGPS,VKYSDGRRTFYHDSVK,GRAAGTFDS,31 µM,2/3
GFTLNSYGIS,VIYSMGRPTFYGDSVN,GRAAGTFDS,930 nM,1/3
GFTLNSYGIS,VIYSDGRRYFYGDSVK,GRAIGRFDS,no signal,0/3
DFTLNSYGYS,VIYSDGRRTFYGDSVK,GRAAGTFDE,no signal,0/3
GFTLNSYGIS,VIYSDGRRMFYGDSVK,NRAAGTFHS,2.0 µM,1/3
GFTLNSYGIG,VIYSDGRRTMYGDSVW,GRAAGTFDS,28 µM,1/3
GFTLNSYGIS,VFYSDGRRRFYGDSVK,GRAAGTFDR,8.6 µM,2/3
GFTLNSYTIS,VIYSDGRRTFKGNSVK,GRAAGTFDS,69 µM,3/3
GFTLNSYGIS,VIYSDGRRTFYGDKVK,GRLAGTFDS,34 nM,3/3
GFTLNSYGIS,VQYSDGRRTKYGDSVK,GRAAGNFDS,no signal,0/3
GSTLNSYGIS,VIYSDGRRTFQGDSVK,GRAAGTFDS,no signal,0/3
WFTLNSYGIS,VMYSDGRRTFYGDSVK,GRAAYTFDS,no signal,0/3
GFTLNSYGRS,VIYSDGRRTFKGDSVK,GRAAGTFFS,9.4 µM,1/3
GFRLNSYGIS,VIYSDGRRTFYGDSVK,GYAAGTFDS,4.8 µM,3/3
GFTLNSYTIS,VIYSDGRKTFYGDSVK,GRKAGTFDS,2.5 µM,2/3
GFTLFSYGIS,SIYSDGRRRFYGDSVK,GRAAGTFDS,260 nM,1/3
GFTLNSYGYS,VIYSDGRRTFCGDSVK,GRAAGTFDI,no signal,0/3
GFTLNDYLYS,VIYSDGRRTFYGDSVK,GRAAGTFDS,no signal,0/3
DFQLNSYGSS,VIYSDGRRTFYGDSVK,GRAAGTFDS,6.0 nM,3/3
GFTLNSYGIS,VIYSDGQHTFYGDSVI,GRAAGTFDS,610 nM,2/3
GFTLNSYSIG,VIYSDGRRTFYGDSVK,GRAAGTFDV,8.6 µM,2/3
GFTLNSYGIS,VIKSDARRTFYGDFVK,GRAAGTFDS,8.5 nM,1/3
GFTLNSYGIS,VIYDDGRRTFFGDSVK,GRSAGTFDS,18 µM,2/3
GFTLYSYGIM,VIYSDLRRTFYGDSVK,GRAAGTFDS,8.3 µM,2/3
GFTHNSYGIS,VIYSDWRRTFYGDSVK,GKAAGTFDS,no signal,0/3
GFTLNSYGIS,PITCDGRRTFYGDSVK,GRAAGTFDS,no signal,0/3
GFTLNSYGIS,VVYSDGRRTFYGDSVK,GRGAGTFFS,no signal,0/3
GFTLNSYGIS,IIYSDGRRTFYGDSVK,GRAAGTQDS,110 nM,3/3
GFNLNSTGIS,VIYSDGRRTFYWDSVK,GRAAGTFDS,no signal,0/3
GFTLNSYGIS,VMYSDGRRTFYGDSVK,CWAAGTFDS,no signal,0/3
GDTLNSYGIS,VIYSDGRRTFYGTSVK,GRAEGTFDS,no signal,0/3
CFTLNSYGIR,WIYSDGRRTFYGDSVK,GRAAGTFDS,14 µM,3/3
GQTLNSYGIS,VIYSDGRRTFYFDSVK,GRAYGTFDS,no signal,0/3
GFTLNGYGIS,VGYSDGRRTMYGDSVK,GRAAGTFDS,no signal,0/3
GFTLNSYGIN,VYYSLGRRTFYGDSVK,GRAAGTFDS,no signal,0/3
GFTLNSYGWS,VIYSDGRRTVYGDSVK,GRAAGTNDS,330 µM,2/3
GFTLNSYIIS,VIYSDGRRTFYGDTVI,GRAAGTFDS,60 µM,1/3
IFTLNSYGIS,VIYSDGRRKFYGDSVK,GRAAGTFDN,4.3 µM,3/3
GFTLNSYGIS,VGYSDGRRTFYGDSTK,GRAAGTFES,5.3 µM,1/3
GFTNNSYGIS,VIYSDGRRTFYGDKVK,GSAAGTFDS,29 µM,2/3
GWTLNSYGIS,VIYSDGRRTFYGCSVH,GRAAGTFDS,no signal,0/3
GQTLNSYGIS,VIYSDGRRTFYGDIVK,GFAAGTFDS,36 µM,1/3
GFTLFSAGIS,LIYSDGRRTFYGDSVK,GRAAGTFDS,570 nM,1/3
GFTLNSYGIS,VIYSDGRRTFYGQSVK,GRACGTFWS,1.6 µM,3/3
GFTLNSYGIS,VIYQDGRPTFYGASVK,GRAAGTFDS,62 µM,2/3
GFTLNSYGIS,VIYSDGRRTFYGDSVE,GRAAGLFMS,11 nM,3/3
GFTLNSYGIS,VIYSDGRRTFYGDSSK,GRDAGTWDS,95 µM,1/3
GFTLNSYGIS,VIYSDGRRTFYGPSVK,GRAVGTFDS,8.5 µM,1/3
GFTNNSYGPS,VIYSDGRRTFYGDSHK,GRAAGTFDS,6.5 µM,1/3
GFTLNDYGIS,VIYSLGRRTFYGDQVK,GRAAGTFDS,39 µM,2/3
GFTLNSYGIS,VAYSDGRRTWYEDSVK,GRAAGTFDS,no signal,0/3
GFTLNSYGIS,VIYSDGIRTFYGLSVK,GQAAGTFDS,45 µM,3/3
GFTLWSYGIS,VIYSDGNRTFYGDSVR,GRAAGTFDS,76 nM,3/3
GITLNSYGGS,VIYSDGRRTFYGDSVK,GRAAGTRDS,no signal,0/3
GFTLNSYYIS,VDYSDGRRTFYGDSVK,SRAAGTFDS,26 µM,2/3
GFVLNSYGIS,VIYSDKTRTFYGDSVK,GRAAGTFDS,no signal,0/3
GFTLNSYGIS,VIYEDGVRTFYGDSNK,GRAAGTFDS,50 µM,2/3
GFTLNSYGIS,VIYSDGRRECYGDSVK,GRAAGTFDS,no signal,0/3
GFTLNSDGIS,VIYSDGRRTFYGDSVK,GRANGTFDH,no signal,0/3